Species on record: Rattus norvegicus
Test: Open TG-GATES - Regimen: Single
Assay type: toxicity, organism-based, Sprague-Dawley
Design: regimen Single, gender Male, age 6 weeks
Conditions: in vivo, po, route gavage; for Hb / Ht / MCH / Plat: tissue Blood
[1] = 0 mg/kg, 3 h, dose level Control
[2] = 0 mg/kg, 3 h, tissue Plasma, dose level Control
[3] = 0 mg/kg, 6 h, dose level Control
[4] = 0 mg/kg, 6 h, tissue Plasma, dose level Control
[5] = 0 mg/kg, 9 h, dose level Control
[6] = 0 mg/kg, 9 h, tissue Plasma, dose level Control
[7] = 0 mg/kg, 24 h, dose level Control
[8] = 0 mg/kg, 24 h, tissue Plasma, dose level Control
[9] = 60 mg/kg, 3 h, tissue Plasma, dose level Low
[10] = 60 mg/kg, 6 h, tissue Plasma, dose level Low
[11] = 60 mg/kg, 9 h, tissue Plasma, dose level Low
[12] = 60 mg/kg, 24 h, tissue Plasma, dose level Low
[13] = 200 mg/kg, 3 h, dose level Middle
[14] = 200 mg/kg, 3 h, tissue Plasma, dose level Middle
[15] = 200 mg/kg, 6 h, dose level Middle
[16] = 200 mg/kg, 6 h, tissue Plasma, dose level Middle
[17] = 200 mg/kg, 9 h, dose level Middle
[18] = 200 mg/kg, 9 h, tissue Plasma, dose level Middle
[19] = 200 mg/kg, 24 h, dose level Middle
[20] = 200 mg/kg, 24 h, tissue Plasma, dose level Middle
[21] = 600 mg/kg, 3 h, dose level High
[22] = 600 mg/kg, 3 h, tissue Plasma, dose level High
[23] = 600 mg/kg, 6 h, dose level High
[24] = 600 mg/kg, 6 h, tissue Plasma, dose level High
[25] = 600 mg/kg, 9 h, dose level High
[26] = 600 mg/kg, 9 h, tissue Plasma, dose level High
[27] = 600 mg/kg, 24 h, dose level High
[28] = 600 mg/kg, 24 h, tissue Plasma, dose level High

With `CS(=O)(=O)O.Cc1ccc(NC(=O)c2ccc(CN3CCN(C)CC3)cc2)cc1Nc1nccc(-c2cccnc2)n1` [IMATINIB MESYLATE] the TERMINAL_BW [1] was 202.9 g, the Hb [1] was 12.7 g/dL and the Ht [1] was 38.9%. The MCH [1] was 21 pg, the Plat [1] was 110.9 x10_4/uL and the ALT [2] was 42.4 IU/L. For the same compound, the BUN [2] was 14.8 mg/dL, the Ca [2] was 10.8 mg/dL and the TG [2] was 90.1 mg/dL. It also gave a TERMINAL_BW [3] of 196.3 g, a Hb [3] of 12.9 g/dL and a Ht [3] of 38.9%. The MCH [3] was 20.9 pg, the Plat [3] was 120.5 x10_4/uL and the ALT [4] was 38 IU/L. The BUN [4] was 11 mg/dL, the Ca [4] was 10.8 mg/dL and the LDH [4] was 201 IU/L. For the same compound, the TG [4] was 56.4 mg/dL, the TERMINAL_BW [5] was 195.3 g and the Hb [5] was 12.8 g/dL. The Ht [5] was 38.4%, the MCH [5] was 20.8 pg and the Plat [5] was 123 x10_4/uL. For the same compound, the ALT [6] was 39 IU/L, the BUN [6] was 10.8 mg/dL and the Ca [6] was 10.7 mg/dL. For the same compound, the TG [6] was 48.2 mg/dL, the TERMINAL_BW [7] was 207.7 g and the Hb [7] was 13.1 g/dL. The Ht [7] was 39.8%, the MCH [7] was 21.6 pg and the Plat [7] was 119.2 x10_4/uL. The ALT [8] was 38 IU/L, the BUN [8] was 17.3 mg/dL and the Ca [8] was 10.9 mg/dL. The TG [8] was 132.6 mg/dL, the TERMINAL_BW (60 mg/kg, 3 h, dose level Low) was 201.4 g and the Hb (60 mg/kg, 3 h, dose level Low) was 12.4 g/dL. For the same compound, the Ht (60 mg/kg, 3 h, dose level Low) was 38%, the MCH (60 mg/kg, 3 h, dose level Low) was 20.6 pg and the Plat (60 mg/kg, 3 h, dose level Low) was 113.9 x10_4/uL. The ALT [9] was 39.6 IU/L, the BUN [9] was 13.4 mg/dL and the TG [9] was 66.7 mg/dL. It also gave a TERMINAL_BW (60 mg/kg, 6 h, dose level Low) of 198.5 g, a Hb (60 mg/kg, 6 h, dose level Low) of 12.9 g/dL and a Ht (60 mg/kg, 6 h, dose level Low) of 39.2%. For the same compound, the MCH (60 mg/kg, 6 h, dose level Low) was 20.8 pg, the Plat (60 mg/kg, 6 h, dose level Low) was 116.8 x10_4/uL and the ALT [10] was 39.8 IU/L. For the same compound, the BUN [10] was 9.6 mg/dL, the TG [10] was 82.7 mg/dL and the TERMINAL_BW (60 mg/kg, 9 h, dose level Low) was 196.4 g. It also gave a Hb (60 mg/kg, 9 h, dose level Low) of 12.8 g/dL, a Ht (60 mg/kg, 9 h, dose level Low) of 38.8% and an MCH (60 mg/kg, 9 h, dose level Low) of 20.9 pg. The Plat (60 mg/kg, 9 h, dose level Low) was 111.6 x10_4/uL, the ALT [11] was 37 IU/L and the BUN [11] was 9.7 mg/dL. The Ca [11] was 10.5 mg/dL, the TG [11] was 75.7 mg/dL and the TERMINAL_BW (60 mg/kg, 24 h, dose level Low) was 211.5 g. It also gave a Hb (60 mg/kg, 24 h, dose level Low) of 12.6 g/dL, a Ht (60 mg/kg, 24 h, dose level Low) of 38% and an MCH (60 mg/kg, 24 h, dose level Low) of 21.4 pg. It also gave a Plat (60 mg/kg, 24 h, dose level Low) of 120.9 x10_4/uL, an ALT [12] of 47.2 IU/L and a BUN [12] of 15.2 mg/dL. For the same compound, the Ca [12] was 10.7 mg/dL, the TG [12] was 119.2 mg/dL and the TERMINAL_BW [13] was 199.7 g. For the same compound, the Hb [13] was 12.3 g/dL, the Ht [13] was 37.9% and the MCH [13] was 20.5 pg. It also gave a Plat [13] of 118.1 x10_4/uL, an ALT [14] of 47.4 IU/L and a BUN [14] of 12.6 mg/dL. For the same compound, the Ca [14] was 10 mg/dL, the TG [14] was 50.4 mg/dL and the TERMINAL_BW [15] was 201.3 g. The Hb [15] was 12.5 g/dL, the Ht [15] was 38.1% and the MCH [15] was 20.6 pg. It also gave a Plat [15] of 131.4 x10_4/uL, an ALT [16] of 44 IU/L and a BUN [16] of 9.3 mg/dL. The Ca [16] was 10.1 mg/dL, the TG [16] was 63.2 mg/dL and the TERMINAL_BW [17] was 198.3 g. It also gave a Hb [17] of 12 g/dL, a Ht [17] of 36.2% and an MCH [17] of 21.2 pg. The Plat [17] was 128.8 x10_4/uL, the ALT [18] was 45.2 IU/L and the BUN [18] was 8.5 mg/dL. It also gave a TG [18] of 58.9 mg/dL, a TERMINAL_BW [19] of 206.3 g and a Hb [19] of 12.3 g/dL. For the same compound, the Ht [19] was 37.3%, the MCH [19] was 21.1 pg and the Plat [19] was 119 x10_4/uL. For the same compound, the ALT [20] was 52.4 IU/L, the BUN [20] was 13.6 mg/dL and the TG [20] was 96 mg/dL. It also gave a TERMINAL_BW [21] of 204.1 g, a Hb [21] of 12.3 g/dL and a Ht [21] of 37.7%. The MCH [21] was 20.7 pg, the Plat [21] was 116 x10_4/uL and the ALT [22] was 51.8 IU/L. The BUN [22] was 13.9 mg/dL, the TG [22] was 67.1 mg/dL and the TERMINAL_BW [23] was 200.7 g. For the same compound, the Hb [23] was 12.4 g/dL, the Ht [23] was 37.4% and the MCH [23] was 21 pg. It also gave a Plat [23] of 119.4 x10_4/uL, an ALT [24] of 47.8 IU/L and a BUN [24] of 10.9 mg/dL. For the same compound, the Ca [24] was 10 mg/dL, the TG [24] was 65.8 mg/dL and the TERMINAL_BW [25] was 200.2 g. For the same compound, the Hb [25] was 12.3 g/dL, the Ht [25] was 37.7% and the MCH [25] was 20.7 pg. For the same compound, the Plat [25] was 112.6 x10_4/uL, the ALT [26] was 50 IU/L and the BUN [26] was 9 mg/dL. The Ca [26] was 10 mg/dL, the TG [26] was 55.3 mg/dL and the TERMINAL_BW [27] was 204.9 g. The Hb [27] was 12.1 g/dL, the Ht [27] was 36.5% and the MCH [27] was 20.7 pg. The Plat [27] was 122.8 x10_4/uL, the ALT [28] was 52.6 IU/L and the BUN [28] was 12.1 mg/dL. The Ca [28] was 10 mg/dL and the TG [28] was 70.4 mg/dL.

From ChEMBL document CHEMBL3885861, “Open TG-GATES”
